Measured values: paper PMC9029089, “1,5-Disubstituted Acylated 2-Amino-4,5-dihydroimidazoles as a New Class of Retinoic Acid Receptor–Related Orphan Receptor (ROR) Inhibitors” (International Journal of Molecular Sciences, 2022)

Target: T1, RORγ (Mus musculus, UniProt P51450)
T1 construct: mRORγ (Pro-261-end); expressed in transfected cells
T1 sequence (P51450 261-516 limits assumed): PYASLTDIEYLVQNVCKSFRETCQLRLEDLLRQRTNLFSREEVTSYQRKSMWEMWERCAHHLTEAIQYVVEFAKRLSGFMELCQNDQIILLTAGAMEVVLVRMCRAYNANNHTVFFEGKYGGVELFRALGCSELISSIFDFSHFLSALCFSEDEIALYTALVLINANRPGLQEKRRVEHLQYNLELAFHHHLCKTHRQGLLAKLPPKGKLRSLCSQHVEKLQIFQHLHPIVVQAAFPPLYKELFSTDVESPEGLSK
Experiment: Gal4-RORγ-LBD UAS-luciferase reporter assay in TRex-CHO-K1 cells (doxycycline-stimulated)
Format: cell-based
Settings: library 2520, RORγ cells

## CC(C)C(=O)NC1=NCC(Cc2ccc3ccccc3c2)N1CCC1CC2CCC1C2 (mixture of isomers) [2520.08]
  % Inhibition at 4 μM (N=3): -23.6%
